For this test, the target named is T1, 15-hydroxyprostaglandin dehydrogenase (HPGD) (Homo sapiens, UniProt P15428).
T1 sequence (P15428 1-266): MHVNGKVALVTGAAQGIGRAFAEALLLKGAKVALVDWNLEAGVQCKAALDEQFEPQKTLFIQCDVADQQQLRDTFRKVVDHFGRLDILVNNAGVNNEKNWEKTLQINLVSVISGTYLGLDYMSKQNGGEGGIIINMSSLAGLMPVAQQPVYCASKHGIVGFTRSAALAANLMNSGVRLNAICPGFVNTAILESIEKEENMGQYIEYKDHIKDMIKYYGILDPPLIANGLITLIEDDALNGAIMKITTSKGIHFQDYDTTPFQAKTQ
In words: biochemical.

Each structure is given as a SMILES string.

Broadly, the IC50 is the point on the concentration scale where inhibition reaches its midpoint.

Compound `CCOC(=O)N1CCN(Cc2nc3c(c(=O)n(C)c(=O)n3C)n2Cc2cccc(C)c2)CC1` [Compound 5, ethyl 4-((1,3-dimethyl-7-(3-methylbenzyl)-2,6-dioxo-2,3,6,7-tetrahydro-1H-purin-8-yl)methyl)piperazine-1-carboxylate] had a 50% inhibitory concentration (IC50) of over 57 µM. The result for `CNC(=O)c1ccc(Oc2nc3c(c(=O)n(C)c(=O)n3C)n2Cc2cccc(C)c2)cc1` [Compound 12, 4-((1,3-dimethyl-7-(3-methylbenzyl)-2,6-dioxo-2,3,6,7-tetrahydro-1H-purin-8-yl)oxy)-N-methylbenzamide] reads over 57 µM; that for `Cc1cccc(Cn2c(OC3CCN(C(=O)C4CC4)CC3)nc3c2c(=O)n(C)c(=O)n3C)c1` [Compound 34, 8-((1-(cyclopropanecarbonyl)piperidin-4-yl)oxy)-1,3-dimethyl-7-(3-methylbenzyl)-1H-purine-2,6(3H,7H)-dione], over 57 µM.

Source of the values: publication PMC5185321 (Journal of medicinal chemistry, 2015).
